Reference: publication PMC9631991

Target: ATG4b WT (full-length ATG4b) (human) (UniProt Q9Y4P1)

inhibition of cleavage of 1 uM pro-LC3B to LC3B-I by 50 nM ATG4b, increasing LC3B-115, mass spectrometry: 15 nM
Substance: LC3B-115 (residues 1-115) (from UniProt Q9GZQ8 1-115) (domain or fragment)
